The experiment concerns the target MNK1 (Homo sapiens (Human), UniProt Q9BUB5). The experiment is described as follows: MNK1 in vitro kinase assay (Assay 3), Z'-LYTE. In kind it is biochemical.
[1] abbreviates: compound concentration of 1 μM, assay 3.

By UniProt entry, the sequences of proteins in these tests, tags left out.
UniProt Q9BUB5, whole entry: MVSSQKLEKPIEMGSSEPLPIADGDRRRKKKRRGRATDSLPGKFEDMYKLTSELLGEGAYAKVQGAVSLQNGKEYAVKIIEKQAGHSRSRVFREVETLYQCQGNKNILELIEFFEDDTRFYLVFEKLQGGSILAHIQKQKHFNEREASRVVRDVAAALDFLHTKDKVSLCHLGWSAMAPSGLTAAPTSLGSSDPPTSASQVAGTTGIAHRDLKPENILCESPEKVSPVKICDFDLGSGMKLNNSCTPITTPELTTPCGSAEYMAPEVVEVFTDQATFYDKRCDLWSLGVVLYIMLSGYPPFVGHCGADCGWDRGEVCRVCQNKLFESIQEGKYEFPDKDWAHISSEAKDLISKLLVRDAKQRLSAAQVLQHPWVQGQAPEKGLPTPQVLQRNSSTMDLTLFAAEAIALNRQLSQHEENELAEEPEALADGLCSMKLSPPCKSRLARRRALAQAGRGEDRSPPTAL

Where two headings read alike, the source gives them in different places.

This note sets out measurements from patent US9139577B2, “Sulfoximine substituted quinazolines for pharmaceutical compositions” (Boehringer Ingelheim International GmbH, priority 2013, dated 2015).

Consider `Cc1cc(N=S(C)(C)=O)cc2ncnc(Nc3ccc(F)cc3OC(C)C(F)(F)F)c12` (single isomer, unassigned) [7.002], for which the “MNK1 % INH” value is listed as 73%.

On to `Cc1cc(N=S(C)(C)=O)cc2ncnc(Nc3ccc(F)cc3OC(C)C#N)c12` (single isomer, unassigned) [7.004], for which the “MNK1 % INH” value under setting [1] amounted to 51%.

Consider `CC(Oc1cc(F)ccc1Nc1ncnc2cc(N=S(C)(C)=O)cc(F)c12)C(F)(F)F` (single isomer, unassigned) [7.007], for which the “MNK1 % INH” value under setting [1] was 67%.
